Values of other authors, collected in patent publication US8450266B2, “Analogues of glucose-dependent insulinotropic polypeptide” (Ipsen Pharma S.A.S., priority 2008, dated 2013).

Conditions: unmodified GIP; Said and Mutt, 1970; cited from earlier work

For “Glucose-dependent insulinotropic polypeptide [GIP]”, the in vivo half-life is listed as “about 2 minutes”.
